In ChEMBL document CHEMBL2163244, “Structure-guided design, synthesis and biological evaluation of novel DNA ligase inhibitors with in vitro and in vivo anti-staphylococcal activity” (Bioorg Med Chem Lett, 2012):

Assay: Inhibition of Streptococcus pneumoniae NAD-dependent DNA ligase assessed as equilibrium dissociation constant

NC(=O)c1cc2cc(Br)c(C(F)(F)F)nc2nc1N
Kd: 16 nM
